Only a part is listed here, and it is no random draw. Some results for these compounds are left out of this collection, so the calls shown say nothing about other tests. Calls of active or inactive are those of the source.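 How the source made its calls: active means blocking of liver enzyme CYP2C9 beyond about 50% at 5 µM (limit read from the data); inactive means the rest.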

Amino acid sequences for entries named in this document (tags omitted).
UniProt P11712, whole entry: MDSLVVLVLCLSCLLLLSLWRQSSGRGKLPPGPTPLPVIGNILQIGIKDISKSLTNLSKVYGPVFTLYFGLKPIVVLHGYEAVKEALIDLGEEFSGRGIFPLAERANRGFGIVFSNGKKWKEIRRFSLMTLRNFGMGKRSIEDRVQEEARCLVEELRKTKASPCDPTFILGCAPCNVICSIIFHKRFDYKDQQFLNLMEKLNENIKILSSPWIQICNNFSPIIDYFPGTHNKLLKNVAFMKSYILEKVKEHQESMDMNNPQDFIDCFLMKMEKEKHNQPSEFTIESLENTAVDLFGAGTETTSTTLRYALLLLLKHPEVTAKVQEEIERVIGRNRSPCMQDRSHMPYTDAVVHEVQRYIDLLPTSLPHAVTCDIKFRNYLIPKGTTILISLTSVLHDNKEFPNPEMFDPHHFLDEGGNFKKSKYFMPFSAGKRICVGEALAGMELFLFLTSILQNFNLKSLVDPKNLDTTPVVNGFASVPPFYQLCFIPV

Data on 3 compounds can be found in PubChem BioAssay AID777 (Sanford-Burnham Center for Chemical Genomics, 2007).

This assay concerns the target Cytochrome P450 2C9 (Homo sapiens) (UniProt P11712). The assay is described as follows: blockers of cytochrome P450 2C9 activity – biochemical, luminescence, ADME assay, primary screen (AID 777). Particulars: CYP2C9 Supersomes, luciferin-H conversion, at 5 µM, hits give high values.
Usually inhibition stands for the relative decrease from the control value, in per cent. Consider `CC(C)N1C(=O)CC2(CCN(CCOC(=O)C(O)(c3ccccc3)c3ccccc3)CC2)C1=O`, for which the inhibition was inactive: -5.3%. The result for `CN(C)c1cccc(C(=O)NCC2(N(C)C)CCCCC2)c1` reads inactive: -5.6%; that for `O=C(OC1CN2CCC1CC2)C(CO)(c1ccccc1)c1ccccc1` (stereo not drawn), inactive: 8.1%.
